Tests used:
[1] = target: Alpha-2C adrenergic receptor (Rattus norvegicus, UniProt P22086)
[2] = target: Muscarinic acetylcholine receptor M3 (Homo sapiens, UniProt P20309)
[3] = target: Muscarinic acetylcholine receptor M1 (Homo sapiens, UniProt P11229)
[4] = target: Muscarinic acetylcholine receptor M3 (Rattus norvegicus, UniProt P08483)
[5] = target: 5-hydroxytryptamine receptor 2A (Rattus norvegicus, UniProt P14842)

Protein sequences, listed by entry. Tags and fused reporters are not part of them. Lines headed by an entry give the natural chain unless they say otherwise; changes in a name come on top.
UniProt P22086, whole entry: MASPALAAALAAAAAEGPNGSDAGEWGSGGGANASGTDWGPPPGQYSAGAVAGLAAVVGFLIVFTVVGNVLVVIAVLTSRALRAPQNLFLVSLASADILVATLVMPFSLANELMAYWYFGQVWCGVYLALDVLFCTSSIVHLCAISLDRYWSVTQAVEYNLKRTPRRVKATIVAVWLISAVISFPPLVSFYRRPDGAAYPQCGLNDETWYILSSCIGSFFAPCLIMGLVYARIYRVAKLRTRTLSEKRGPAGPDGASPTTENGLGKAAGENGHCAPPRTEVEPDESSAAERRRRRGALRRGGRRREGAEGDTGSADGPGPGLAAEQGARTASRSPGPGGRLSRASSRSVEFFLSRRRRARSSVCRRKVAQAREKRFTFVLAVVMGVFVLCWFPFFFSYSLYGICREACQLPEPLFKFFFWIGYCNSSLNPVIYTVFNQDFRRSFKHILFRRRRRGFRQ
UniProt P20309, whole entry: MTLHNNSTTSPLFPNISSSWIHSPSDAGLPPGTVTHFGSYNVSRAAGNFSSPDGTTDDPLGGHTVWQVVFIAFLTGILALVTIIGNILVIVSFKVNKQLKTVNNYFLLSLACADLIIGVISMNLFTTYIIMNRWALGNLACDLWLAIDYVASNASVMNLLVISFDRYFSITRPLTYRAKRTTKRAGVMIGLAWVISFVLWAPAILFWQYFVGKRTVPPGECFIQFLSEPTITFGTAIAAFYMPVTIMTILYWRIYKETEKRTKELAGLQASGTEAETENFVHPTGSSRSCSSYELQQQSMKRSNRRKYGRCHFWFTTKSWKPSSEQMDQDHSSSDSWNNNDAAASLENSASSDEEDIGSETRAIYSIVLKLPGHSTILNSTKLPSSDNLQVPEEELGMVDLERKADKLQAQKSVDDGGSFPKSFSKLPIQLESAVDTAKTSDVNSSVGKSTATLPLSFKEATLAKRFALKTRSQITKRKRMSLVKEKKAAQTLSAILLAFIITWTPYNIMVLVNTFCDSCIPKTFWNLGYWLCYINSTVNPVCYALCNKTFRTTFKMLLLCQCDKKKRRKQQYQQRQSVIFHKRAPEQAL
UniProt P11229: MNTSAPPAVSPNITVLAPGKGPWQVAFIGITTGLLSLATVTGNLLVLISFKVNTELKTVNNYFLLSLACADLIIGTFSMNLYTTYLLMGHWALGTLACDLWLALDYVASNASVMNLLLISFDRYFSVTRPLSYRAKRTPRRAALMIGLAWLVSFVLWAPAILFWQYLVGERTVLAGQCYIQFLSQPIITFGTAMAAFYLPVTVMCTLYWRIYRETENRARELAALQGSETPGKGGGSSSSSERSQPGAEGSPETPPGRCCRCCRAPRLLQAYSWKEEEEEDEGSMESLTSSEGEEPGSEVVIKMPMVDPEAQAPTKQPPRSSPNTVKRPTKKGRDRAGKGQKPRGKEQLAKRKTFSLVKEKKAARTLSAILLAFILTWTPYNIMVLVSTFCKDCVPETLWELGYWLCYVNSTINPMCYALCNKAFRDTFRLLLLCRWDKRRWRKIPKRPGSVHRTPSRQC
UniProt P08483, whole entry: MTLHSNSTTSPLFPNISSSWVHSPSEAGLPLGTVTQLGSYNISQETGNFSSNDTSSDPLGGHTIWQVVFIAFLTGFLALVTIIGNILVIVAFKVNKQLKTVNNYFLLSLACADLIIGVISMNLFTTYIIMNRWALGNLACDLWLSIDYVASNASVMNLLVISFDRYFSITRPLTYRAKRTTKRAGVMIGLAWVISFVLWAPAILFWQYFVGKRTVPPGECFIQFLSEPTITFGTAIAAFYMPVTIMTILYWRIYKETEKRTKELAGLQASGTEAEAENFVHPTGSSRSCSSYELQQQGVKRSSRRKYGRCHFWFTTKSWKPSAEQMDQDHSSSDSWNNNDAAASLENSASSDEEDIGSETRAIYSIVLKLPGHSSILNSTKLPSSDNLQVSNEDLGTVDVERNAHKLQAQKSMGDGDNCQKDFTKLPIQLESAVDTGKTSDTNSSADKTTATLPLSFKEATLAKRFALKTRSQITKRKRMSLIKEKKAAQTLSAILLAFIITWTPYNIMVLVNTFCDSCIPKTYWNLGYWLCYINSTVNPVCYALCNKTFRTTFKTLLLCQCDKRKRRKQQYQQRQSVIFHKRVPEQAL
UniProt P14842, whole entry: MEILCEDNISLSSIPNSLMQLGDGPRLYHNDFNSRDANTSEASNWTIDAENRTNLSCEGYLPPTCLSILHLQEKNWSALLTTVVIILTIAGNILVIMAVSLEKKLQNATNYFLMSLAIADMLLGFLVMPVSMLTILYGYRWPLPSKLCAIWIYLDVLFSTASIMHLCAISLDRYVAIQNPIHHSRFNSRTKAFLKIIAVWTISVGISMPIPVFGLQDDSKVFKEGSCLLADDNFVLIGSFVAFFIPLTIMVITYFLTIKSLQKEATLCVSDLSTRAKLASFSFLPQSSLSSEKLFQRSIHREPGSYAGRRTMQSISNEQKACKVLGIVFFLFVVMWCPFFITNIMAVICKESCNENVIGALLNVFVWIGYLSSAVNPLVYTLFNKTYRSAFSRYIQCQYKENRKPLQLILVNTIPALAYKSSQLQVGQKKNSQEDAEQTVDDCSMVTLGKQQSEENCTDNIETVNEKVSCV

Compound	Ki [1]	Ki [2]	Ki [3]	Ki [4]	Ki [5]
Cc1nc2n(c(=O)c1CCN1CCC(c3noc4cc(F)ccc34)CC1)CCCC2 [3-{2-[4-(6-Fluoro-benzo[d]isoxazol-3-yl)-piperidin-1-yl]-ethyl}-2-methyl-6,7,8,9-tetrahydro-pyrido[1,2-a]pyrimidin-4-one(risperidone)]	3 nM	–	–	–	–
CN1CCN(C2=c3ccccc3=Nc3ccc(Cl)cc3N2)CC1 [6-chloro-10-(4-methylpiperazin-1-yl)-2,9-diazatricyclo[9.4.0.0^{3,8}]pentadeca-1,3(8),4,6,10,12,14-heptaene]	–	7 nM	1.4 nM	14 nM	–
Cc1cc2c(s1)=Nc1ccccc1NC=2N1CCN(C)CC1 [CAS_132539-06-1]	–	–	–	25 nM	4 nM

From BindingDB's records for doi:10.1016/0893-133X(94)00129-N (Eli Lilly, 1996)
